The results in this text go back to patent US10858339B2, “Aryl cyclopropyl-amino-isoquinolinyl amide compounds” (priority 2017, dated 2020).

By UniProt entry, the sequences of proteins in these tests, tags left out.
UniProt O60674, whole entry, species assumed: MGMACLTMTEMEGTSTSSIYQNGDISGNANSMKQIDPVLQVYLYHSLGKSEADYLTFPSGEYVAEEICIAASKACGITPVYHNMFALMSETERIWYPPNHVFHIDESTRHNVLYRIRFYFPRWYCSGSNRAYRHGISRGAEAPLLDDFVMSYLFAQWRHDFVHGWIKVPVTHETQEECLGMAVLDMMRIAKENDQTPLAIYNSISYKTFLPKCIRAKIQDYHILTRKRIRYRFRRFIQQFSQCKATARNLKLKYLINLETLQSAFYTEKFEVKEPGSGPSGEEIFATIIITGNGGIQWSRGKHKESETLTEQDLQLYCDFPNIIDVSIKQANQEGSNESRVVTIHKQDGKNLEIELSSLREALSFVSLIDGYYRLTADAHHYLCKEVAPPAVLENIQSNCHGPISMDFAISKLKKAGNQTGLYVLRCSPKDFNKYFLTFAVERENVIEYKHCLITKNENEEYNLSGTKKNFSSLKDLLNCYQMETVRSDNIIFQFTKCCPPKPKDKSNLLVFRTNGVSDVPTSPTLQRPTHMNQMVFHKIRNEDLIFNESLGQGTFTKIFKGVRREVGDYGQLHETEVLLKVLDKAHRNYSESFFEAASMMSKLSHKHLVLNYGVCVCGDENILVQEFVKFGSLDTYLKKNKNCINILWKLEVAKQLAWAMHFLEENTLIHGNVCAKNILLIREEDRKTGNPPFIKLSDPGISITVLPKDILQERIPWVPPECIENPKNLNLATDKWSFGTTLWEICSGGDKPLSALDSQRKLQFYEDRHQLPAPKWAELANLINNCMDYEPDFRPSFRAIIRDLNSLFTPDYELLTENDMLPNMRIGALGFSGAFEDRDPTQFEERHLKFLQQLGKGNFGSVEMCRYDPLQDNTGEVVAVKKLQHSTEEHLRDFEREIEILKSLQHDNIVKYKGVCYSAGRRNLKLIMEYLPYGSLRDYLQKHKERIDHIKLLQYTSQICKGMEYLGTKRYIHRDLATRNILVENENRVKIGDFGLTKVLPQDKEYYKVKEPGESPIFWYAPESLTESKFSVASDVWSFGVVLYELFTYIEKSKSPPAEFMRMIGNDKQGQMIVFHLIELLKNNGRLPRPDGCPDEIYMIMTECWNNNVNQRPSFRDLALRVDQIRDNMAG
UniProt O75116, whole entry, species assumed: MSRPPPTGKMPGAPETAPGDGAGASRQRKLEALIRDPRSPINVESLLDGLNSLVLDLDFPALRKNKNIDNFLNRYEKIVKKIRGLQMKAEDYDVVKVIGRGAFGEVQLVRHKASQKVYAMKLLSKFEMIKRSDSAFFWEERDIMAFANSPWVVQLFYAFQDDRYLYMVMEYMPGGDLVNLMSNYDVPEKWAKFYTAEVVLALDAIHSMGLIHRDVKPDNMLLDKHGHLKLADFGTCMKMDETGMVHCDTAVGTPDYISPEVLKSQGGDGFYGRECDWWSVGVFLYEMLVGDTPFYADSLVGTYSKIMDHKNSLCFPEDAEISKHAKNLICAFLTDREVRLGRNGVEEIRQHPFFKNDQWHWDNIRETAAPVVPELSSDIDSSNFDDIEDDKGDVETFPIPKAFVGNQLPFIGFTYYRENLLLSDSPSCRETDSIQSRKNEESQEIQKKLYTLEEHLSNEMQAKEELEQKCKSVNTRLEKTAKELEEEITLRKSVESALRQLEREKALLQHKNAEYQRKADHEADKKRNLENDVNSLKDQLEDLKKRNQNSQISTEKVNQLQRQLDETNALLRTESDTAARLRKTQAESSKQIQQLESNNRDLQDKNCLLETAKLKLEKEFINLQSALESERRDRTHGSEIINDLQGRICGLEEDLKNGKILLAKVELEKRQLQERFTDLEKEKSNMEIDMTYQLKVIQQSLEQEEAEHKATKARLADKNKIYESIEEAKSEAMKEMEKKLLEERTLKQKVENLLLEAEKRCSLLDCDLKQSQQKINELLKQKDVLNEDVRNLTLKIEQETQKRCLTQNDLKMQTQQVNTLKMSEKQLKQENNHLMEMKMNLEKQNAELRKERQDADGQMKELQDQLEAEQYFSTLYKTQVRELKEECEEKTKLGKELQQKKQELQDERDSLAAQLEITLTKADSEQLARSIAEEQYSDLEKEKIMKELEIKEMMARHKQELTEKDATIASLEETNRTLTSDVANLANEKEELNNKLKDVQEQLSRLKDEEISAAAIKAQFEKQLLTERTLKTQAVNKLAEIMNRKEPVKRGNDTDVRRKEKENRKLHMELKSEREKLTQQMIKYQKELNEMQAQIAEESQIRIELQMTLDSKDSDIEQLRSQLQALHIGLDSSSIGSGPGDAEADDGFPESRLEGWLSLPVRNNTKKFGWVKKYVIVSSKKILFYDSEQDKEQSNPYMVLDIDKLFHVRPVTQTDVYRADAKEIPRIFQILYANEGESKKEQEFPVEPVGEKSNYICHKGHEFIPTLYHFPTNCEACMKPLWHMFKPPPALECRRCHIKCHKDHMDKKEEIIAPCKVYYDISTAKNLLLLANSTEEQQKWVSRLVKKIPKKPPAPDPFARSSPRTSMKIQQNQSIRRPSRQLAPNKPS

Molecules are shown by their SMILES.

In one assay the target is JAK2 (Homo sapiens, UniProt O60674). In words: JAK kinase assay, JAK2 enzyme.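 Also: JAK2 kinase reaction run 75 min at room temperature, leftover ATP read by Kinase-Glo luminescence, 11-point dilution series in 2.5% DMSO, percent of inhibitor-free DMSO control.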 The following applies: JAK2, Table 16.
For another assay, the target named is T1, JAK3 (Homo sapiens, UniProt P52333).
T1 sequence (P52333 1-1124): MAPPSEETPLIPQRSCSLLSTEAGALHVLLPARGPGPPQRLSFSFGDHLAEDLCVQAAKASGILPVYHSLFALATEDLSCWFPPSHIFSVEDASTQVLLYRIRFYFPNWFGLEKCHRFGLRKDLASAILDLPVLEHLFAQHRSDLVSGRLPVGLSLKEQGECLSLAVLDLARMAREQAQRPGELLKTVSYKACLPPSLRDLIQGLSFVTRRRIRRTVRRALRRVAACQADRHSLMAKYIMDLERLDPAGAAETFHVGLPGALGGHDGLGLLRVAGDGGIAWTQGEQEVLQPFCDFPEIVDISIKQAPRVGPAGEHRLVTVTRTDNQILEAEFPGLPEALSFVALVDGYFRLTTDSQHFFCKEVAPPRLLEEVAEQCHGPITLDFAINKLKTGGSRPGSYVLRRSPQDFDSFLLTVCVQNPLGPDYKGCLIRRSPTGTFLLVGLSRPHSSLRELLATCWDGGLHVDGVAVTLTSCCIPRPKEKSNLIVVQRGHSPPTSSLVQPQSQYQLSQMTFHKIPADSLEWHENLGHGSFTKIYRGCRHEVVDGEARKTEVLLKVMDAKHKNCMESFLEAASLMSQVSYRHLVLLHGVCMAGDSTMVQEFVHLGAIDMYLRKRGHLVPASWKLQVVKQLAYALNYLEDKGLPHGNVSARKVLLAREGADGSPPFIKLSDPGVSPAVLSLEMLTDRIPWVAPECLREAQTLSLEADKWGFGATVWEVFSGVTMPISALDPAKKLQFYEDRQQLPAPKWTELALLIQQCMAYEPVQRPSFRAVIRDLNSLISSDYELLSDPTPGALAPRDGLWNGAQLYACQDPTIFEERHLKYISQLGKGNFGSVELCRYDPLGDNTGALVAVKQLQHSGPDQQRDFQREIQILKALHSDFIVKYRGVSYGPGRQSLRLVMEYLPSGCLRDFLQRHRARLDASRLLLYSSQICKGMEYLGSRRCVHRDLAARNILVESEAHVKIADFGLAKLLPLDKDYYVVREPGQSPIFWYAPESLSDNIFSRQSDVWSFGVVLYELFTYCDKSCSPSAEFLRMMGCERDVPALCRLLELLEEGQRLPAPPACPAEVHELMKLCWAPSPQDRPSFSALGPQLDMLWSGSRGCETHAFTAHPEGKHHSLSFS
In words: JAK kinase assay, JAK3 enzyme. To be noted: JAK3, Table 16.

A further assay has as its target ROCK2 (Homo sapiens, UniProt O75116). In words: biochemical. The following applies: ROCK2, Table 16.

As usually defined, the Ki is a dissociation constant, usually derived from enzyme kinetics or from competition with a known ligand. A lower Ki goes with tighter binding. For `O=C(Nc1ccc2cnccc2c1)[C@@H]1C[C@H]1c1cccc(S(=O)(=O)Nc2ccccn2)c1` [Example E279], the Ki at JAK2 came out at 1150 nM; at JAK3, 2500 nM; on ROCK2, 7.5 nM.
